Laboratory results as given in article doi:10.1101/2025.05.16.654599 (bioRxiv, 2025).

Amino acid sequences for entries named in this document (tags omitted). Residues count along the entry.
UniProt Q9ULR3, 38-514, stated change not applied: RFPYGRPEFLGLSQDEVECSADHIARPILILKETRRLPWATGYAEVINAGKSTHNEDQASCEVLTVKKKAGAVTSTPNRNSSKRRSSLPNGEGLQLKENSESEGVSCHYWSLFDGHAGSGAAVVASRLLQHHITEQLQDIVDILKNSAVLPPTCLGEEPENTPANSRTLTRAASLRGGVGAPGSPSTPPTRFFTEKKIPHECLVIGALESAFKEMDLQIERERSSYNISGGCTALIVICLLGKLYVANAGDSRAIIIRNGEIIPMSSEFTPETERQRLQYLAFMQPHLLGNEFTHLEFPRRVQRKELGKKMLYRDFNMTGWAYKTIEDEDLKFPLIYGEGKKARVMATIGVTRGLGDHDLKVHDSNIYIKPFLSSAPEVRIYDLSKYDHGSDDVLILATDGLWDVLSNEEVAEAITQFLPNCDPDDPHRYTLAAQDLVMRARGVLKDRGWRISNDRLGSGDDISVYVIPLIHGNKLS
UniProt Q9ULR3, whole entry L66R: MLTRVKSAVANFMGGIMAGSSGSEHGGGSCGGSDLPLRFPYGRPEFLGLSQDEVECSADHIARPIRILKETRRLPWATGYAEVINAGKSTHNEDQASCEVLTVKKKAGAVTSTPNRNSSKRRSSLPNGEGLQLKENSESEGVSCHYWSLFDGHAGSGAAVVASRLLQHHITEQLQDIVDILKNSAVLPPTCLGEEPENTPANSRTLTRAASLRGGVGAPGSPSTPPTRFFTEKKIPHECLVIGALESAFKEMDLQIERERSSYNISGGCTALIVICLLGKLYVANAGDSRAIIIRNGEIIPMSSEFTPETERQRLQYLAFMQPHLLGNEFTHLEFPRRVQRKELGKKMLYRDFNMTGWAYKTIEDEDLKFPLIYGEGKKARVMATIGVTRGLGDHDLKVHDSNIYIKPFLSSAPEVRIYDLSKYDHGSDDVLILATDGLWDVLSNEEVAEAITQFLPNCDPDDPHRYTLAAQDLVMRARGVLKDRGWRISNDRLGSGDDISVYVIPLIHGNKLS

Columns and labels:
mNeon Δ37 PPM1H (human) = mNeon Δ37 PPM1H (human) (UniProt Q9ULR3); experiment: MST; unlabeled Rab titrated (16 serial dilutions) against 100 nM fluorescent mNeon PPM1H form; Monolith NT.115; 30 min in the dark in a reaction buffer; 3 independent measurements with different protein preparations
mNeon L66R PPM1H (human) = mNeon L66R PPM1H (human) (UniProt Q9ULR3); experiment: as above

Substance	Kd (mNeon Δ37 PPM1H (human)) [µM]	Kd (mNeon L66R PPM1H (human)) [µM]
His Rab8A (Q67L) full length (from UniProt P61006 1-207) (natural protein)	10.5	5.2
Rab12 (Q101L) full length (from UniProt Q6IQ22-2 1-244) (natural protein)	–	9.6
thio-phosphorylated Rab8A (from UniProt P61006 1-207) (natural protein)	–	1.1
